Only a part is listed here, and it is no random draw. Results with a measured potency or affinity are listed apart. Activity calls are given as the source filed them. No rule for the calls is given here.
Molecular target: Heat shock cognate 71 kDa protein (Homo sapiens) (UniProt P11142)
Experiment: small molecules displacing fluorescent ligand from Hsc70 – biochemical, fluorescence polarization, primary screen (AID 568)
Details: mP, at 20 µM, hits give high values

Chains of the proteins cited; added tags and fusions are not shown.
UniProt P11142, whole entry: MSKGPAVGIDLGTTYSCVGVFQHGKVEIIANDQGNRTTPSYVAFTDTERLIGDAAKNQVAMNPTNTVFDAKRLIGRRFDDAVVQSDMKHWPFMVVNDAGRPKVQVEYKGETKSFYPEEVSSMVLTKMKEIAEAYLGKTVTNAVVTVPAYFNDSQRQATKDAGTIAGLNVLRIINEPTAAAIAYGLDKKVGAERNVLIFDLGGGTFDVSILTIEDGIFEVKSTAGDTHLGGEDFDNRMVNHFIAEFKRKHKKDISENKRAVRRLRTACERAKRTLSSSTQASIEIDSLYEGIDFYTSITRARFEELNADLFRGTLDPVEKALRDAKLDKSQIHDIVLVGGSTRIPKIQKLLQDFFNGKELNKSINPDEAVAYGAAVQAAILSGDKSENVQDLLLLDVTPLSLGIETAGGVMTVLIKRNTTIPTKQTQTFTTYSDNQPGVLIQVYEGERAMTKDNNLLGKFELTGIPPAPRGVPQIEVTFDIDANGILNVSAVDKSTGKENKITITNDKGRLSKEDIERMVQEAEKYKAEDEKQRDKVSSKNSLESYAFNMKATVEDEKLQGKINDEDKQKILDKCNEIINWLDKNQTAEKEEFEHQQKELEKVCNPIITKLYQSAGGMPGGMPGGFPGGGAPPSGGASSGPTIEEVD

Row | SMILES | displacement
1 | CP(=O)(NC(=O)Nc1ccccc1)Oc1ccccc1 (stereo unspecified) | inactive: -3.5%
2 | CCOP(C)(=S)SCC(=O)NC(C)C(=O)O (stereo unspecified) | inactive: 0.3%
3 | CP(=O)(Nc1ccccn1)Oc1ccc(Cl)cc1 (stereo unspecified) | inactive: 1.7%
4 | CP(=S)(Nn1cnnc1)Oc1ccccc1 (stereo unspecified) | inactive: -4.7%
5 | COc1ccccc1OP(C)(=O)Nc1ccc(C)cc1 (stereo unspecified) | inactive: 1%
6 | Cc1ccc(NP(C)(=O)Oc2ccccc2)c(C)c1 (stereo unspecified) | inactive: -0.7%
7 | COc1ccc(OP(C)(=O)Nc2cccc(F)c2)cc1 (stereo unspecified) | inactive: 2.6%
8 | Cc1ccc(C)c(NP(C)(=O)Oc2ccccc2)c1 (stereo unspecified) | inactive: 7.2%
9 | Cc1cc(C)cc(OP(C)(=O)Nc2ccccn2)c1 (stereo unspecified) | inactive: -0.5%
10 | COc1ccccc1OP(C)(=O)Nc1c(C)cccc1C (stereo unspecified) | inactive: -1.2%
11 | Cc1nc2ccc3ccccc3c2s1.O=[N+]([O-])c1cc([N+](=O)[O-])c(O)c([N+](=O)[O-])c1 | inactive: -4.2%
12 | CCOP(C)(=S)SCC(=O)NC(C)(CC)C(=O)O (stereo unspecified) | inactive: 1.8%
13 | CP(=O)(Nc1ccc2c(c1)OCCO2)Oc1ccccc1 (stereo unspecified) | inactive: 4%
14 | Cc1ccccc1NP(C)(=O)Nc1ccccc1C | inactive: 6.8%
15 | CN(C)CCOC(=O)C(O)(c1ccccc1)C1CCCCC1 (stereo unspecified) | inactive: 3.6%
16 | CCN(CC)CCCOC(=O)C(O)(c1ccccc1)C1CCCCC1 (stereo unspecified) | inactive: 0.1%

Row | SMILES | displacement
17 | CP(=O)(Nc1ccccc1)Oc1ccc(F)cc1 (stereo unspecified) | inactive: 6.4%
18 | CP(=O)(Nc1ccccc1F)Oc1ccccc1 (stereo unspecified) | inactive: -0.6%
19 | CN(C)CCOC(=O)C(O)(c1ccccc1)C1CCCC1 (stereo unspecified) | inactive: -1.8%
20 | Cc1c(NP(C)(=O)Oc2ccc(C(C)C)cc2)c(=O)n(-c2ccccc2)n1C (stereo unspecified) | inactive: 0.7%
21 | CP(=O)(Nc1ccccn1)Oc1ccccc1 (stereo unspecified) | inactive: 4.2%
22 | COc1ccccc1OP(C)(=O)Nc1ccc(C)cc1C (stereo unspecified) | inactive: -2.2%
23 | CCc1ccc(OP(C)(=O)O)cc1 | inactive: 0.7%
24 | COc1ccccc1OP(C)(=O)Nc1ccc(C)c(C)c1 (stereo unspecified) | inactive: -1.6%
25 | Cc1nc2ccc3ccccc3c2o1.O=[N+]([O-])c1cc([N+](=O)[O-])c(O)c([N+](=O)[O-])c1 | inactive: 7.8%
26 | CP(=O)(OC12CC3CC(CC(C3)C1)C2)OC12CC3CC(CC(C3)C1)C2 | inactive: 5.5%
27 | CCN(CC)CC(O)COC(=O)C(O)(c1ccccc1)C1CCCCC1 (stereo unspecified) | inactive: 3.6%
28 | COc1ccccc1OP(C)(=O)Nc1c(C)n(C)n(-c2ccccc2)c1=O (stereo unspecified) | inactive: 3.9%
29 | CP(=O)(Oc1ccccc1)N1CCOC1=O (stereo unspecified) | inactive: 2.5%
30 | CC(C)(C)c1ccc(OP(C)(=O)O)cc1 | inactive: 3.2%
31 | CP(=O)(Nc1ccc(Cl)cc1)Oc1ccc(F)cc1 (stereo unspecified) | inactive: 3.5%

From PubChem BioAssay AID568 (Sanford-Burnham Center for Chemical Genomics, 2006)
